Read-outs that look alike come from different tables or passages of the source.
Molecular target: BACE1 (Homo sapiens (Human), UniProt P56817)
Assay: BACE1 Cell-Free Assay (fluorescence polarization)
Format: biochemical
Source text: Beta-secretase (BACE) is one of the enzymes involved in the generation of the amyloid beta peptide found in the amyloid plaques of Alzheimer's Disease patients. This assay measures the inhibition of the beta-secretase enzyme as it cleaves a non-native peptide.
A synthetic APP substrate that can be cleaved by beta-secretase having N-terminal biotin and made fluorescent by the covalent attachment of Oregon Green at the Cys residue is used to assay beta-secretase activity in the presence or absence of the inhibitory compounds. The substrate is Biotin-[…]^EVEFR-C[Oregon Green]KK-OH. The BACE1 enzyme is affinity purified material from conditioned media of CHO-K1 cells that have been transfected with a soluble BACE construct (BACE1deltaTM96His). Compounds are incubated in a ½ log dose response curve from a top concentration of 100 μM with BACE1 enzyme and the biotinylated fluorescent peptide in 384-well black plates (Thermo Scientific #4318). […] After a 10 minute incubation at room temperature, plates are read on a PerkinElmer EnVision for fluorescence polarization (Ex485 nm/Em530 nm). The activity of the beta-secretase enzyme is detected by changes in the fluorescence polarization that occur when the substrate is cleaved by the enzyme.

By UniProt entry, the sequences of proteins in these tests, tags left out. Residues count along the entry.
UniProt P56817, 46-457: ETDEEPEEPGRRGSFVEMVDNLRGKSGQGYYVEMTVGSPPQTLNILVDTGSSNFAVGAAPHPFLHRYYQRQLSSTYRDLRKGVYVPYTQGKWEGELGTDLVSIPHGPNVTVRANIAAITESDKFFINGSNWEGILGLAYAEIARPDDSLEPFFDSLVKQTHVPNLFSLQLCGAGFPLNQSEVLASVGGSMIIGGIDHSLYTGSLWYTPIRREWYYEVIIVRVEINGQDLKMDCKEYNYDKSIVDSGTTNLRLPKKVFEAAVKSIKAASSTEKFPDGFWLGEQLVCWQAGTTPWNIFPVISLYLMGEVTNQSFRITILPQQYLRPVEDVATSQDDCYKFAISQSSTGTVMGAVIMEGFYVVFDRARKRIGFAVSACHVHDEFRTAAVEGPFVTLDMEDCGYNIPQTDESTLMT

| Compound | IC50 (Table 4, read-out: BACE1 Cell Free IC50) | IC50 (geometric mean of 2-4 determinations unless otherwise indicated (b: ≧5; c: single determination), read-out: BACE1 Cell-free Assay IC50) |
| --- | --- | --- |
| C[C@H]1C[C@H]2CSC(N)=N[C@@]2(c2cc(NC(=O)c3ccc(C#N)cn3)cs2)CO1 [Comparator 5, reference compound] | 19 nM | – |
| CC#CCn1ccc(C(=O)Nc2csc([C@]34CO[C@@H](C)C[C@H]3CSC(N)=N4)n2)n1 [Example 92, N-{2-[(4aR,6S,8aR)-2-amino-6-methyl-4,4a,5,6-tetrahydropyrano[3,4-d][1,3]thiazin-8a(8H)-yl]-1,3-thiazol-4-yl}-1-(but-2-yn-1-yl)-1H-pyrazole-3-carboxamide] | – | 82 nM |

Source: patent publication US9315520B2, “2-amino-6-methyl-4,4a,5,6-tetrahydropyrano[3,4-d][1,3]thiazin-8a(8H)-yl-1,3-thiazol-4-yl amides” (Pfizer Inc., priority 2014, dated 2016)
